Laboratory results reported in US10718778B2, “Compositions and methods for detecting protein sulfenylation” (THE REGENTS OF THE UNIVERSITY OF MICHIGAN, priority 2014, dated 2020).

Legend:
[1] = system: endogenous sulfenylated proteins in bacterial cell lysates, including AhpC C166S; assay type: biochemical; settings: for labeling of endogenous sulfenylated proteins: bacterial cell lysates, FIGS. 3A and B
AhpC C166S = experiment: spectroscopic properties of probe conjugated to purified AhpC C166S (sulfenic acid conjugation); assay type: biochemical
Excerpt: In these experiments, the incorporation of a blocking group inhibits other two-proton processes, such as the Knoevenagel condensation of AMCs with aldehydes. F-AMC analogues display a higher degree of selectivity.
This is coupled with a significant excitation red-shifting of the primary excitation peak near 490 nm, providing an excellent excitation ratiometric fluorescent probe using the common 405 nm and 488 confocal lines (FIG. 5). […] Next, whether DiNap-1F could be used for ratiometric imaging sulfenylation in live cells by Total Internal Reflectance Fluorescence (TIRF) microscopy was tested.

SMILES	labeling of endogenous sulfenylated proteins [1]	change of excitation/emission spectra after conjugation (AhpC C166S; purified labeled AhpC C166S)	excitation ratiometric fluorescence change (AhpC C166S; upon conjugation to sulfenic acid, after only a few minutes) [fold]	competition with DiNap-1F labeling ([1]; FIG. 3E)
Nc1ccc2c3c(cccc13)C(=O)C(F)=C2O [DiNap-1F]	efficiently label many endogenous sulfenylated proteins	dramatic loss of the excitation peak at 400 nm	> 2	–
C#CCCCC1CCC(=O)CC1=O (centres unmarked) [Dyn2 RhoN3]	efficiently label many endogenous sulfenylated proteins	–	–	–
CC1(C)CC(=O)CC(=O)C1 [Dimedone, 5,5-dimethylcyclohexane-1,3-dione]	–	–	–	effectively competed
